uPA surface inh – inhibitors of cell surface uPA generation; cell surface uPA generation assay, qHTS; Potency, µM (highest dose often 38.3 µM), inactives show top-dose activity change, negative = inhibition, most hits filed as inhibitors; 330,000 tested, 0.31% active; AID 540303; active means well fitted inhibition curve with a large enough effect; inconclusive means small, poorly fitted or top-dose-only effect; inactive means no such curve, though single readings can be large or run the other way; tested in mouse RAW 264.7 cells; further: potency means the concentration at half of the fitted maximal effect; on the % scale 0 is the no-effect control and ±100 the full control effect; nearly all actives have a fitted effect of over 55% in size
miR-21 reporter – raises the signal of a miR-21 reporter | Potency, µM (doses to about 38.3 µM), for inactives: top-dose reporter change, positive = more light | HeLa miR-21 FLuc reporter, luciferase, 48 h | AID 2288 | 340,000 tested, under 10 active; active = well fitted rising curve with a large enough effect; inconclusive = small, poorly fitted or top-dose-only effect; inactive = no such curve, though single readings can be large or run the other way;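 also: % of control where 0% means no effect; miR-21 action dims this reporter so a rising signal means less miR-21 action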
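Luminescence from a firefly luciferase reporter carrying a miR-21 binding site downstream, stably expressed under a CMV promoter in HeLa cells that make miR-21 endogenously, reports miRNA modulation after 48 h compound exposure up to approximately 40uM final.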
TDP1 cell CPT – DT40-hTDP1 cell growth loss with CPT; Potency, µM (highest dose often 46.2 µM), inactives show at the top dose activity change, negative = growth inhibition, hits mostly inhibitors; 420,000 tested, 12% active; chicken DT40 Tdp1-/-;hTDP1 cells + 20 nM CPT, ATP luminescence, 48 h; further: potency means the concentration at half of the fitted maximal effect; on the % scale 0 is the no-effect control and ±100 the full control effect; nearly all actives have a fitted effect of over 55% in size
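Chicken DT40 Tdp1-/- cells complemented with human TDP1, 400 cells/well, exposed to compounds plus 20 nM camptothecin for at least 48 h at 37 C; viability read as ATP content by CellTiter-Glo luminescence.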
DT40 TDP1 no CPT – qHTS for Inhibitors of human tyrosyl-DNA phosphodiesterase 1 (TDP1): qHTS in cells in absence of CPT. Potency, µM (doses to about 46.2 µM), without a hit: at the top dose activity change, negative = growth inhibition, most hits filed as inhibitors. 420,000 tested, 15% active. DT40 Tdp1-/- hTDP1 cells, no CPT, ATP luminescence, 48 h. AID 686978, 2013; further: potency means the concentration at half of the fitted maximal effect; on the % scale 0 is the no-effect control and ±100 the full control effect; nearly all actives have a fitted effect of over 55% in size
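Chicken DT40 Tdp1-/- cells stably complemented with human TDP1 were seeded at 400 cells/well with DMSO in place of 20 nM camptothecin. After compound pinning, cells grew at least 48 hr at 37 °C; viability read by CellTiter-Glo luminescence.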
TDP1 inh – TDP1 (human) enzyme inhibition; Q9NUW8; recombinant TDP1, AlphaScreen DNA substrate cleavage; Potency, µM (top dose mostly 130 µM), without a hit: top-dose activity change, negative = inhibition, actives largely listed as inhibitors; 350,000 tested, 0.28% active; AID 485290; further: potency means the concentration at half of the fitted maximal effect; on the % scale 0 is the no-effect control and ±100 the full control effect; nearly all actives have a fitted effect of over 40% in size
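E. coli-derived human Tdp1, 1 nM final. Cpd preinc 15 min RT; substrate 15 nM final, 5 min RT; AS bead mix 10 ug/ml final, 10 min RT. Signal loss = tyrosine-FITC cleavage. No-enzyme wells = max signal.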
* marks the source's active call; other numbers are inactive results; ? = inconclusive; / = no result; [ ] = remark or other dose. An excerpt weighted towards active compounds, which were near 16% of everything screened. Unless noted, the call rests on the fitted dose curve; in most records, active means well fitted curve in the direction sought with a large enough effect; inconclusive means small, poorly fitted or top-dose-only effect, or another doubt; inactive means no such curve, though single readings can be large; an effect the other way counts as inactive or inconclusive.

Each structure is followed by: uPA surface inh, miR-21 reporter, TDP1 cell CPT, DT40 TDP1 no CPT, TDP1 inh
- Cc1nc2sc3c(NCc4ccco4)ncnc3c2c2c1COC(C)(C)C2
  -2%, -6%, ?, 23µM*, 2%
- CC1(C)Cc2c(c(-c3ccco3)nc3sc4c(NCCO)ncnc4c23)CO1
  ?, -17%, 23µM*, 9.2µM*, -2%
- COC(=O)CSc1nc(SC)nc2c1sc1nc(-c3ccco3)c3c(c12)CC(C)(C)OC3
  0%, /, 21%, -4%, /
- COCCCNc1ncnc2c1sc1nc(-c3ccco3)c3c(c12)CC(C)(C)OC3
  ?, -11%, ?, 15µM*, 3%
- C/C(=N/NC(=O)c1cccc(C)c1)c1c(O)cc(C)oc1=O
  4%, -39%, ?, 23µM*, 5%
- O=C(NNC(=O)c1cc(OCC(F)(F)F)ccc1OCC(F)(F)F)c1ccc(Cl)c(Cl)c1
  11%, 13%, 23µM*, ?, 2%
- COc1ccc(C(=O)Nc2c(-c3cccs3)c(=O)c3ccccc3n2C)cc1
  -8%, -5%, 23µM*, 21µM*, -8%
- COc1ccc(/C=C/C(=O)Nc2cccnc2Cl)cc1
  ?, -43%, -12%, -7%, /
- COc1ccc(C(=O)Nc2nnc(-c3cccs3)s2)cc1
  -10%, -45%, 10µM*, 12µM*, 6%
- COc1ccc(/C=C/C(=O)Nc2nc(-c3cccs3)ns2)cc1
  /, -14%, ?, 18µM*, -3%
- COc1ccc(NC(=O)Nc2nnc(-c3cccs3)s2)cc1
  4%, -42%, ?, -11%, 2%
- CCC(CC)C(=O)N(C)c1c(C)nc2c(OCc3ccc(Cl)cc3Cl)cccn12
  /, /, 4.6µM*, 3.7µM*, /
- CCC(CC)C(=O)N(C)c1c(C)nc2c(OCC(=O)N(C)C)cccn12
  /, /, -15%, 0%, /
- CCC(CC)C(=O)N(C)c1c(C)nc2c(OCc3ccc(C#N)cc3)cccn12
  /, /, ?, 18µM*, /
- CCC(CC)C(=O)N(C)c1c(C)nc2c(OCc3ccccc3C)cccn12
  /, /, 6.5µM*, 7.3µM*, /

(cont.)
Each structure is followed by: uPA surface inh, miR-21 reporter, TDP1 cell CPT, DT40 TDP1 no CPT, TDP1 inh
- COc1cc(-c2nnc(COc3ccc4ccccc4c3)o2)cc(OC)c1OC
  4%, -15%, ?, 26µM*, 2%
- COc1cc(-c2nnc(COC(=O)c3ccc(C)o3)o2)cc(OC)c1OC
  5%, /, ?, ?, 20µM*
- COc1cc(-c2nnc(SCC(=O)N3CCOCC3)o2)cc(OC)c1OC
  -14%, 5%, 5%, -11%, /
- COc1cc(-c2nnc(-c3ccccc3)o2)cc(OC)c1OC
  -3%, -8%, 16µM*, 12µM*, -1%[56.1 µM]
- COc1cc(-c2nnc(COC(=O)c3cc(C)no3)o2)cc(OC)c1OC
  7%, 1%, -19%, -22%, 1%
- COc1ccc(-c2nnc(-c3ccccc3)o2)cc1OC
  ?, -80%, -22%, ?, /
- COc1cc(-c2nnc(SCC3(c4ccc(Br)cc4)OCCO3)o2)cc(OC)c1OC
  -10%, 4%, 16µM*, ?, -1%
- Cc1nc(Cl)c(Cl)n1CCOc1ccccc1
  -1%, -3%, 3%, -1%, 8%
- COc1cc(-c2nnc(-c3cc(OC)c(OC)c(OC)c3)o2)cc(OC)c1OC
  0%, -6%, 1.8µM*, 2.1µM*, 7%
- O=C(CCN1CCC2CCC(C2)C1)c1ccccc1 (centres undefined)
  0%, /, 2.6µM*, 2.6µM*, /
- O=C(Nc1ccc(S(=O)(=O)N2CCOCC2)cc1)c1c(F)cccc1F
  -1%, -2%, 3%, -27%, 11%
- Cc1sc2cc3c(c(C(=O)c4ccccc4)[n+]2c1C)-c1cccc2cccc-3c12
  -20%, ?, 1µM*, 1.3µM*, 3%
- Cc1cc(C)c2c(N)c(C(=O)c3ccccc3)sc2n1
  1%, 1%, -28%, ?, -1%
- O=C(c1ccccc1)c1c2c(cc3sc4ccccc4[n+]13)-c1cccc3cccc-2c13
  0%, 27%, 4.6µM*, 2.3µM*, 5%
- COC(=O)[C@H](CC(C)C)NC(=O)N1CCCCC1
  1%, -2%, -5%, -1%, /

Next section:
Each structure is followed by: uPA surface inh, miR-21 reporter, TDP1 cell CPT, DT40 TDP1 no CPT, TDP1 inh
- Cc1ccc2c(c1)N(CC(=O)NCCc1ccccc1)C(=O)CO2
  /, -7%, 3%, -3%, -3%
- COc1ccc(NS(=O)(=O)c2ccc(NC(=O)Cc3cccs3)cc2)cc1
  8%, -6%, ?, 15µM*, 4%
- COc1ccc(CC(=O)Nc2cc(S(=O)(=O)Nc3ccc(OC)cc3)ccc2OC)cc1
  3%, /, 21µM*, 21µM*, 2%
- COc1ccc(CC(=O)Nc2ccc(S(=O)(=O)Nc3ncccn3)cc2)cc1
  -6%, -2%, 10%, -28%, -2%
- CCC(=O)Nc1ccc(S(=O)(=O)N2CCCCC2)cc1OC
  /, -8%, -22%, -15%, -1%
- CCCN(CCC)S(=O)(=O)c1ccc(NC(=O)Cc2cccs2)cc1
  -14%, 2%, -24%, -32%, -3%
- CCCCN(CCCC)S(=O)(=O)c1ccc(NC(=O)Cc2cccs2)cc1
  /, 14%, ?, 21µM*, -2%
- CCC(=O)Nc1ccc(S(=O)(=O)Nc2cccc(C)c2)cc1OC
  /, 18%, ?, 12µM*, 4%
- CN(C)CCC(O)(c1ccccc1)c1ccccc1Cl (centres undefined)
  6%, /, 4%, 3%, /
- COCc1cn(CC[C@@H]2CC[C@@H](NC(=O)Nc3ccc4c(c3)OCO4)[C@@H](CO)O2)nn1
  /, /, 4%, -2%, /
- CC(C)CC(=O)NNC(=S)NCc1ccco1
  -2%, -2%, 0%, -8%, -3%
- CCN(CC)CCC=C(c1cccs1)c1cccs1
  -5%, /, ?, 23µM*, /
- CCN(CC)CCCNC(=O)/C(=C\c1cccn1C)NC(=O)c1cccs1
  -10%, -8%, 2%, -3%, 1%
- O=S(=O)(c1c(F)cccc1F)N1CCN(C(=S)NCc2ccc3c(c2)OCO3)CC1
  2%, -1%, ?, ?, 5%
- O=C(Cc1ccccc1)NCC(=O)Nc1ccccc1Br
  2%, -9%, 8%, -23%, 9%

Later entries.
Each structure is followed by: uPA surface inh, miR-21 reporter, TDP1 cell CPT, DT40 TDP1 no CPT, TDP1 inh
- CCCCCCCCCCCCCCC(O)C[N+](C)(CCO)CCO (centres undefined)
  -1%, /, 2.3µM*, 3.7µM*, /
- CCCCCCCCC(C)O (centres undefined)
  /, /, /, /, 6%
- O=C(CNC(=O)c1ccccc1F)NNC(=O)c1ccccc1O
  2%, /, 15%, 26%, 7%[0.505 µM]
- COc1ccccc1/C=C/C=N/N1CCN(Cc2ccc(Cl)cc2)CC1
  /, 13%, ?, ?, 12%
- COc1ccccc1/C=C/C=N\N1CCN(Cc2ccccc2Cl)CC1
  -3%, -6%, ?, 29µM*, -2%
- Cc1ccc(N2CCN(/N=C/c3ccncc3)CC2)cc1
  ?, -10%, 21µM*, 18µM*, 11%
- Clc1ccccc1CN1CCN(/N=C/c2ccncc2)CC1
  -14%, 14%, 13µM*, 16µM*, -2%
- Clc1ccc(/C=N/N2CCN(Cc3ccccc3Cl)CC2)cc1
  4%, 3%, -1%, ?, 7%

Results in TDP1 inh and uPA surface inh, for 4 of the compounds above:
| Structure | TDP1 inh | uPA surface inh |
| --- | --- | --- |
| COc1ccccc1/C=C/C=N\N1CCN(Cc2ccccc2Cl)CC1 | -2% | -3% |
| CCCCCCCCCCCCCCC(O)C[N+](C)(CCO)CCO (centres undefined) | / | -1% |
| CCCCCCCCC(C)O (centres undefined) | 6% | / |
| Clc1ccccc1CN1CCN(/N=C/c2ccncc2)CC1 | -2% | -14% |

Laid out differently: results already given
O=C(CNC(=O)c1ccccc1F)NNC(=O)c1ccccc1O
- uPA surface inh: 2%
- miR-21 reporter: /
- TDP1 cell CPT: 15%
- DT40 TDP1 no CPT: 26%
- TDP1 inh: 7%[0.505 µM]
COc1ccccc1/C=C/C=N/N1CCN(Cc2ccc(Cl)cc2)CC1
- uPA surface inh: /
- miR-21 reporter: 13%
- TDP1 cell CPT: ?
- DT40 TDP1 no CPT: ?
- TDP1 inh: 12%
COc1ccccc1/C=C/C=N\N1CCN(Cc2ccccc2Cl)CC1
- uPA surface inh: -3%
- miR-21 reporter: -6%
- TDP1 cell CPT: ?
- DT40 TDP1 no CPT: 29µM*
- TDP1 inh: -2%

Source: PubChem BioAssay
